Reference: ChEMBL document CHEMBL4321820, “Identification and Optimization of Mechanism-Based Fluoroallylamine Inhibitors of Lysyl Oxidase-like 2/3” (J Med Chem, 2019)

Legend:
[1] = target: T1, Lysyl oxidase homolog 2 (Homo sapiens) (UniProt Q9Y4K0); assay: Inhibition of recombinant human C-terminal His-tagged […] (1-774 residues) expressed in mouse myeloma cells at 10XIC50 preincubated with bound enzyme for 30 mins followed by drug wash-out and later incubated with putrescine substrate and measured after 30 mins by Amplex-Red oxidation assay; type: cell-based
T1 sequence (whole entry): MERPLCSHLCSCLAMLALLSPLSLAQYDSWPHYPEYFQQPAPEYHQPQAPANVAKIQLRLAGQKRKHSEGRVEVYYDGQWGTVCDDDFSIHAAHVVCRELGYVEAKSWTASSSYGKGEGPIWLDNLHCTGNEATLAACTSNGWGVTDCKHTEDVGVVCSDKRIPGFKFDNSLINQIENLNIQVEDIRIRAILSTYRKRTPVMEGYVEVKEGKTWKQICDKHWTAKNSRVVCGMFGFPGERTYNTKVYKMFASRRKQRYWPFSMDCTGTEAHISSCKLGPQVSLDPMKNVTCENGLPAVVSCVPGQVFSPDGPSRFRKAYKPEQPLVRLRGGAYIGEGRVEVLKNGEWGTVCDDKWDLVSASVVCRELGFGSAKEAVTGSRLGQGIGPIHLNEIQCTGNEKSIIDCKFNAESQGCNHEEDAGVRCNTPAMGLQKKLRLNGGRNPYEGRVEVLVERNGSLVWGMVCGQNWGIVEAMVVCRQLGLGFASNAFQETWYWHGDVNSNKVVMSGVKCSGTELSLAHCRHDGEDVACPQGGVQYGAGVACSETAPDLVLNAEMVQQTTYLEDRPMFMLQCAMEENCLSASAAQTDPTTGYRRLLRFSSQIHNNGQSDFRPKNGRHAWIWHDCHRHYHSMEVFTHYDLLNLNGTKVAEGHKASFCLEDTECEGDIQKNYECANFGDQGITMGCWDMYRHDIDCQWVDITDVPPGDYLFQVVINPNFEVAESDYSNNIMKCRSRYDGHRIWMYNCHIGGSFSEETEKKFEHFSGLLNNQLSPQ

[2] = target: T1, Lysyl oxidase homolog 2 (Homo sapiens); assay: Irreversible inhibition of recombinant human C-terminal His-tagged […] (1-774 residues) expressed in mouse myeloma cells assessed as maximal inhibition at 30XIC50 incubated for 60 mins followed by 100-fold dilution prior to addition of putrescine as substrate and measured after 30 mins by jump dilution assay based Amplex-Red oxidation assay relative to control
How it was run: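 LOXL2 soaked 60 min at 37 °C with inhibitor at 30× IC50. Diluted 50-fold in assay buffer (1.2 M urea, 50 mM borate, pH 8.2), then 1:2 with reaction mix of Amplex Red 120 µM, HRP 1.5 U/mL and putrescine. Read out 30 min after substrate addition (ex 565/em 590, 37 °C). Percent activity followed over time after dilution.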

N#CCCN
inhibition [1]: Active | inhibition [2]: Active

The source made the active and inactive calls. The calls are words filed in the database; no cut-off is given here.
